Measured values as given in paper PMC7723054.
The other results are listed elsewhere or left out.

T1: LIN28A (human?, UniProt Q9H9Z2 1-209)
T1 sequence: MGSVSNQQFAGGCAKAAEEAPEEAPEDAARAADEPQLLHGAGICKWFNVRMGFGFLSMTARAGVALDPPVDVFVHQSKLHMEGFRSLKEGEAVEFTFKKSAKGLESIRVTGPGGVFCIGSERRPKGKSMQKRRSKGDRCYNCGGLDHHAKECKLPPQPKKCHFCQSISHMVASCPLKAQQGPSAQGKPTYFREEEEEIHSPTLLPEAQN

T2: CIRBP (Homo sapiens, UniProt Q14011 1-172)
T2 sequence: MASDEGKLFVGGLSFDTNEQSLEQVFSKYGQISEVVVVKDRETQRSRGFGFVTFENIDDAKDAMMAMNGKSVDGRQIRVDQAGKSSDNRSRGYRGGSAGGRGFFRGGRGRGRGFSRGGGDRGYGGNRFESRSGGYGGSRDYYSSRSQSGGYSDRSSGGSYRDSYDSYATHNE

T3: DHX36 (Homo sapiens, UniProt Q9H2U1 1-1008)
T3 sequence: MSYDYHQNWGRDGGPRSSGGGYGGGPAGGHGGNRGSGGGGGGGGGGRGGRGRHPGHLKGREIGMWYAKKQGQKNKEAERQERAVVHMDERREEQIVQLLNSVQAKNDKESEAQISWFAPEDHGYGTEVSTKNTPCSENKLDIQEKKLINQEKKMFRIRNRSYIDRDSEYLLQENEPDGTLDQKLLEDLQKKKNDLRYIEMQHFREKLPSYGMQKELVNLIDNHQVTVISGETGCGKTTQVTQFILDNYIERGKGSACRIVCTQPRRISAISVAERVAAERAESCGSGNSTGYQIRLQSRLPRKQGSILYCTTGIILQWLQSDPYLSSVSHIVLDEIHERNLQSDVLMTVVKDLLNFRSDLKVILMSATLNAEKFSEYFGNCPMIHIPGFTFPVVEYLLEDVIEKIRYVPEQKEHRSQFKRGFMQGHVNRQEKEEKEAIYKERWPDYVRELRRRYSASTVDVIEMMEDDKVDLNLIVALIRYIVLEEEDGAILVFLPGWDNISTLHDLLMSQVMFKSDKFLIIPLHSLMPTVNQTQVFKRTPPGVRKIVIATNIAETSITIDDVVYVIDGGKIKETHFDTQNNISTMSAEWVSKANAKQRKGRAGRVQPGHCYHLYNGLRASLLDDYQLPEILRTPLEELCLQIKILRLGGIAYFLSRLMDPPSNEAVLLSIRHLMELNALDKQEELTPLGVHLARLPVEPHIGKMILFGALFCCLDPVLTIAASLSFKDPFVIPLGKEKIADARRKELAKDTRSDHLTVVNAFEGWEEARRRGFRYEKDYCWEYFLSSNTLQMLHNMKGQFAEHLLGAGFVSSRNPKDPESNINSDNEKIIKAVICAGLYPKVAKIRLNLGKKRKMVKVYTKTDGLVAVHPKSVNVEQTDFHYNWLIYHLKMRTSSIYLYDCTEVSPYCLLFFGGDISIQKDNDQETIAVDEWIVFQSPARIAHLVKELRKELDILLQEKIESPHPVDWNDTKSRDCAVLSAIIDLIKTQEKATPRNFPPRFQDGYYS

B1: NEAT1_ParasoR_ID23 (structured_RNA)
RNA: GGGACCCACAAGGAGGAUCAUAUGUUUUGGUGUACGAAGUUUCAGCGACAUAUAAUCAUGUAUAAUUUUGUCGCUGAAGCUUCGUGCAC
B2: hsa-mir-3939 (structured_RNA)
RNA: GGGAAAGACAAUGGCCAGUCUGCGCGUAGGUGUACGAAGUUUCAGCCGUGCACGUACCUGUCACAUGUGUACGGCUGAAGCUUCGUGCAC
B3: hsa-mir-4711 (structured_RNA)
RNA: GGGAAAUAGCGAGCCACGUCAAACGGAAGGUGUACGAAGUUUCAGCCAUGAGCCCUUUGGAAAGGUCUCGUGGCUGAAGCUUCGUGCAC
B4: hsa-mir-524 (structured_RNA)
RNA: GGGAACAAGACCUCCCCAGACCUCUAGUGGUGUACGAAGUUUCAGCUUUCUCUUGUCCAAAGGAAAAGAAGGCUGAAGCUUCGUGCAC
B5: hsa-mir-1180 (structured_RNA)
RNA: GGGAACAUUCAACGAGGACGCCGAAUGGGGUGUACGAAGUUUCAGCGGAAUAGUGCUCCUGGUUGUUUCGCUGAAGCUUCGUGCAC
B6: NEAT1_ParasoR_ID45 (structured_RNA)
RNA: GGGAAGAGAAACCAUGCAAUUACAGCAGGGUGUACGAAGUUUCAGCUGUAUGGAUAGACCCCAUUUUGUUUAUUCACACAGCUGAAGCUUCGUGCAC
B7: hsa-mir-2116 (structured_RNA)
RNA: GGGAAUAGAUCGUUUUACUACCUGGGCGGGUGUACGAAGUUUCAGCGAGGUCUUCCCAUGCUAAGAAGUCCUCGCUGAAGCUUCGUGCAC
B8: hsa-mir-7108 (structured_RNA)
RNA: GGGACGGCGAAGACCGCAAAUCUGUAUUGGUGUACGAAGUUUCAGCGGGUGGGCGGGGGCGGCCGGUGGGAACCCCGCCCCGCCCCGCGCCCGCACUCACCCGCUGAAGCUUCGUGCAC
B9: hsa-mir-374a (structured_RNA)
RNA: GGGAACAGGCGACCACCAGAGUGAGUAAGGUGUACGAAGUUUCAGCUAAGUGUUAUAGCACUUAGCUGAAGCUUCGUGCAC
B10: hsa-mir-6873 (structured_RNA)
RNA: GGGAAACGUCCCAACAGGAGUCCUAGCAGGUGUACGAAGUUUCAGCGCAAUCAGGACUGGGUCAUUCGCUGAAGCUUCGUGCAC
B11: hsa-mir-519a-1_519a-2 (structured_RNA)
RNA: GGGAAGCCAGACCGGUGAAUUUGGUGGAGGUGUACGAAGUUUCAGCCUUUCUGUUGUCUGAAAGAAAGGAAAGGCUGAAGCUUCGUGCAC
B12: hsa-mir-4263 (structured_RNA)
RNA: GGGAGUAAGUUGACAGCGUGCAAUACCCGGUGUACGAAGUUUCAGCGGAGAUUGGAGUGGCCAGUGUUCCUAAACAAUUCGCUGAAGCUUCGUGCAC
B13: hsa-mir-26a-2 (structured_RNA)
RNA: GGGAAAAGGGGCAGCGCAGCAAUAAAACGGUGUACGAAGUUUCAGCUAGGCUGUUUCCAUCUGUGAGGCCUAGCUGAAGCUUCGUGCAC
B14: hsa-mir-518f (structured_RNA)
RNA: GGGAAACGAGAGUUACGUUCAUGCUAUCGGUGUACGAAGUUUCAGCUUUCUCUUGUCUAAAAGAAAAGAAAGCUGAAGCUUCGUGCAC
B15: hsa-mir-3188 (structured_RNA)
RNA: GGGAGCCGAACGUACGUUUUCAGCUAUGGGUGUACGAAGUUUCAGCUCCCCUAGCGCGCCUUCUGGAGAGCUGAAGCUUCGUGCAC
B16: hsa-mir-646 (structured_RNA)
RNA: GGGAAAUUACGAGGUGAUGCUGUGGCGCGGUGUACGAAGUUUCAGCGCUUUUCACCUGUGAUCCCAGGAGAGGAAGCGCUGAAGCUUCGUGCAC
B17: hsa-mir-3182 (structured_RNA)
RNA: GGGAAAAGCUUGUUGACGCCAUUCCCGCGGUGUACGAAGUUUCAGCAGUCCGUGCAUCCGCCCUUCGAUGCUUGGGUUGCUGAAGCUUCGUGCAC
B18: hsa-mir-548s (structured_RNA)
RNA: GGGAAACAGAGCCUGAGAGCGCAGAGUGGGUGUACGAAGUUUCAGCCCAUUAUUUUUAAUAAUUAUAAUAAUGGGCUGAAGCUUCGUGCAC
B19: hsa-mir-4709 (structured_RNA)
RNA: GGGAGACUUACCAGCGCCGAGAAUCAGUGGUGUACGAAGUUUCAGCCCAAUGGUAUCCAGUGAUUCGUUGAGCUGAAGCUUCGUGCAC
B20: hsa-mir-3675 (structured_RNA)
RNA: GGGACGUGAACCCAGGUGCCGUGUAAAAGGUGUACGAAGUUUCAGCGAUUUCUAUGAGAACAUCGCUGAAGCUUCGUGCAC
B21: hsa-mir-590 (structured_RNA)
RNA: GGGACAGUAUCCGAGCGUUCUGCCACUGGGUGUACGAAGUUUCAGCAGUGCAGUAUGGUGAAGUCAAUCUGUAAUGCUGAAGCUUCGUGCAC
B22: hsa-mir-6827 (structured_RNA)
RNA: GGGAAAGUUACGGCGGUCAGCUUCAAACGGUGUACGAAGUUUCAGCCUGUGCUGUCUCUGAGCACCGGCUGAAGCUUCGUGCAC
B23: hsa-mir-4256 (structured_RNA)
RNA: GGGACCGGAGAACGGUACAAUAACGGUUGGUGUACGAAGUUUCAGCAGGUCUCCUGGCAUGCUGAAGCUUCGUGCAC
B24: hsa-mir-1273h (structured_RNA)
RNA: GGGAAAGCGUGACAGCCGCUGAGAUUCGGGUGUACGAAGUUUCAGCGCAGUGUCGUGGUCACAGCUUGCUGCGCUGAAGCUUCGUGCAC
B25: hsa-mir-4302 (structured_RNA)
RNA: GGGAACGGAUUGCGUACCUGCAAACUGAGGUGUACGAAGUUUCAGCCGAGGUGGGCUGAAGCUUCGUGCAC
B26: hsa-mir-208a (structured_RNA)
RNA: GGGACUCUCGGAGUAAUGAGGUUUCACGGGUGUACGAAGUUUCAGCUUAUACCUGAUGCUCACGUAUAAGCUGAAGCUUCGUGCAC

Columns and labels:
Test in all cases: FOREST: bead pull-down of RNA structure library v1, barcode microarray; U1A/LIN28A: 20 mM HEPES pH 7.5, 80 mM KCl, 20 mM NaCl, 10% glycerol, 2 mM DTT, 0.1 ug/uL BSA, 4 C; BG4/CIRBP/DHX36: 10 mM Tris-HCl pH 7.5, 100 mM KCl (or LiCl),; high values mean tight binding
LIN28A = molecular target: T1, LIN28A
CIRBP = molecular target: T2, CIRBP
DHX36 = molecular target: T3, DHX36

Row | Binder | binding signal (LIN28A) [z-score] | binding signal (CIRBP) [z-score] | binding signal (DHX36) [z-score]
1 | B1 | -0.353 | -0.564 | -1.25
2 | B2 | -0.359 | -0.339 | 0.0143
3 | B3 | -0.383 | 1.95 | 0.444
4 | B4 | -0.382 | 0.917 | -0.394
5 | B5 | -0.328 | -0.217 | -0.0107
6 | B6 | -0.327 | -1.39 | -0.168
7 | B7 | -0.378 | -1.47 | -0.722
8 | B8 | -0.377 | -0.135 | 4.23
9 | B9 | -0.342 | 0.584 | -0.916
10 | B10 | -0.382 | 0.508 | -0.481
11 | B11 | -0.36 | -1.61 | -0.656
12 | B12 | -0.363 | -0.804 | 0.441
13 | B13 | -0.378 | 0.363 | -0.0264
14 | B14 | -0.36 | 1.19 | -1.2
15 | B15 | -0.346 | -0.295 | -0.372
16 | B16 | -0.337 | 1.13 | 0.163
17 | B17 | -0.326 | -0.174 | -0.359
18 | B18 | -0.329 | -0.0567 | 0.491
19 | B19 | -0.371 | -0.349 | 0.439
20 | B20 | -0.365 | 1.12 | 0.391
21 | B21 | -0.362 | 0.118 | 0.0247
22 | B22 | -0.354 | 1.3 | 0.011
23 | B23 | -0.364 | 0.48 | -0.17
24 | B24 | -0.346 | -0.745 | -0.617
25 | B25 | -0.334 | -0.828 | -1.62
26 | B26 | -0.362 | 0.679 | -0.289
